Assay results published in patent publication US20250051264A1, “CANNABIDIOL DERIVATIVE, PREPARATION METHOD THEREFOR AND APPLICATION THEREOF” (DEYI PHARMACEUTICAL LTD., priority 2021, published 2025).

Tested on: dopamine in striatum
Assay: Content of dopamine in brain striatum by the kit method (ELISA) in the MPTP mouse model of Parkinson's disease
Assay type: in vivo, C57/BL6 mice
Conditions: after 14 days intragastric treatment (compound 3 100 mg/kg; amantadine 40 mg/kg); blank 0.71 ± 0.16, model 0.30 ± 0.07
Procedure: (2) MPTP (25 mg/kg) was intraperitoneally injected once a day for 7 consecutive days. The blank group was left untreated.
(3) After modeling, administration was started. The positive drug group was subjected to intragastric administration of amantadine (40 mg/kg), and the compound group was subjected to intragastric administration of compound 3 (prepared in Example 1) at a determined dose (100 mg/kg). The intragastric administration was performed once a day for 14 consecutive days.
After the mice were sacrificed quickly, the brains of the mice were taken and the cerebral palliums (CPs) of the mice were isolated. After exposing the brain striatum of the mice, the striatum was weighed and homogenized after adding PBS according to a proportion. The supernatant was isolated and detected for the content of dopamine in the brain striatum. […]
(4) The microplate was shaken on a shaker for 30 s, left to stand at 37° C. for 30 min, and subsequently measured for absorbance at 562 nm. A standard curve was plotted with the absorbance value as an abscissa and the protein concentration (μg/μL) as an ordinate.
(5) 2 μL of test protein and 18 μL of PBS (10-fold dilution) were added to the microplate, 160 μL of BCA working solution was added, and the microplate was shaken on a shaker for 30 s, left to stand at 37° C. for 30 min, and subsequently measured for the absorbance at 562 nm. […]

## NC12CC3CC(CC(C3)C1)C2 [Positive drug, amantadine, reference compound]
  DA content of dopamine in striatum after treatment: 0.61 ± 0.12 ng/mg
